Patent US10040783B2 (Emory University, priority 2011, dated 2018)
Entries after “also recorded” stand apart in the source; their conditions may differ.

System: mice after pilocarpine-induced status epilepticus
Settings: mouse, in vivo

## COc1cc(/C=C/C(=O)NCCn2c(C(F)(F)F)cc3ccccc32)cc(OC)c1OC [1h, N-(2-(2-(trifluoromethyl)-1H-indol-1-yl)ethyl)-3-(3,4,5-trimethoxyphenyl)acrylamide]
  Effect on status epilepticus-induced weight loss: reduced; also recorded: partially prevented
  Weight gain from day 1 to day 4 compared to vehicle: gained weight; also recorded: gained more weight
